Among the data in ChEMBL document CHEMBL6083271 (J Med Chem, 2024) are Activity values, retold here.

The subject of the test is RS4-11. The test can be described thus: Antiproliferative activity against human RS4;11 cells assessed as inhibition of cell growth measured after 4 days by WST-8 assay. Format: functional, cell-based. As to conditions: time 4.0 day. (In general: Tetrazolium assays rely on reduction of a dye to a coloured formazan, in cell work by metabolically active cells.)

As to `O=C1CCC(N2Cc3c(C#CC4CCN(C(=O)[C@H]5CC[C@H](NC(=O)[C@H]6NC7(CCCCC7)[C@]7(C(=O)Nc8cc(Cl)ccc87)[C@H]6c6cccc(Cl)c6F)CC5)CC4)cccc3C2=O)C(=O)N1` (stereo partly specified), the Activity entry is given as “Active; Compound Showed Weaker Cell Growth Inhibition”.
